Data reported in patent US8415373B2, “Isoquinolinone derivatives as NK3 antagonists” (H. Lundbeck A/S, priority 2008, dated 2013).

Amino acid sequences for entries named in this document (tags omitted).
UniProt P29371, whole entry: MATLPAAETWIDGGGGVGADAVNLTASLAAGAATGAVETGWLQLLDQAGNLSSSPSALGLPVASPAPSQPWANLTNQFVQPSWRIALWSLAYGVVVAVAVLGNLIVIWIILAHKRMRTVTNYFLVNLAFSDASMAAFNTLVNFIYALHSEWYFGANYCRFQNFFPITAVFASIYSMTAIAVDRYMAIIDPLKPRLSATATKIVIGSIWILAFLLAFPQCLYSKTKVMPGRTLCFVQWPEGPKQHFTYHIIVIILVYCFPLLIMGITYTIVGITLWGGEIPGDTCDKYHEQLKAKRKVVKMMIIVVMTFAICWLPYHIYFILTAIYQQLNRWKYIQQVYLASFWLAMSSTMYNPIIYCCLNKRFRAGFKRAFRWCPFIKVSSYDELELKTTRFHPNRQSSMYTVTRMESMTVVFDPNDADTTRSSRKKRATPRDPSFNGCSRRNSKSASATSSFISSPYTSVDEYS

Biological target: T1, human NK3 receptor (Homo sapiens, UniProt P29371)
T1 construct: expressed in transfected cells
Assay: NK3 receptor efficacy and potency assay (FLIPR Calcium 4)
Assay type: cell-based
Settings: agonist dose-response in FLIPR
Description: BHK cells stably expressing the human NK3 receptor were seeded in 100 μl media in black walled clear-base 96-wells plates (Costar) aiming at a confluency of 95-100% at the day of assay. The assay was performed according to the FLIPR Calcium 4 Assay kit (Molecular Devices). At the day of the assay, the media was removed and the cells were washed once with the HBSS buffer (Hanks BSS buffer, pH 7.4 containing 20 mM Hepes) before 100 μl of a solution of the calcium assay reagent dissolved in the HBSS buffer containing 2.5 mM probinicid was added to the cells. The plates were incubated for 60 min at 34° C., 10% CO2 before use in the FLIPR for examination of fluorescence. […]
For efficacy and potency evaluation of compounds, these were diluted in HBSS buffer prior to test. For test of agonist activity, 25 μl of the diluted compound solution was added and the plate was analyzed for 5 minutes in the FLIPR. […] The plates were subsequently analyzed for 5 minutes before the assay was terminated. The maximal increase in fluorescence over background following each ligand addition was determined. The IC50 value was calculated using sigmoidal variable slope curve fitting, and the cIC50 value was determined using the equation (cIC50=IC50/(1+(EC85/EC50))), where EC85 and EC50 for NKB were determined as described above.

EC85 concentration of NKB: ~1 nM
Substance: neurokinin B [NKB]
